Measured values published in PubChem BioAssay AID504467 (National Center for Advancing Translational Sciences (NCATS), 2011).
This is a selection; strong and weak results do not stand in their true shares. Inconclusive results are not listed. Entries that show only a call come without a potency. The source made the active and inactive calls. Calls follow the shape of the dose curve; as a rule, active = well fitted inhibition curve with a large enough effect; inconclusive = small, poorly fitted or top-dose-only effect, or effect the other way; inactive = flat fitted curve, though single readings scatter.
Potency is read from the fitted curve at half-maximal effect.

Assay: qHTS screen for small molecules that inhibit ELG1-dependent DNA repair in human embryonic kidney (HEK293T) cells expressing luciferase-tagged ELG1; also: nearly all actives have a fitted effect of over 55% in size
Conditions: HEK293T ELG1-luciferase reporter, luminescence, 16 h, DNA damage induced by 5-fluorouridine; series mostly up to 46.1 µM
With `COc1ccccc1OP(C)(=O)Nc1ccccc1Br` (stereo not drawn) the Potency was “inactive”.
In the case of `CC(C)(C)c1ccc(OP(C)(=O)O)cc1`, the Potency was “inactive”.
In the case of `CP(=O)(Nc1ccc(Cl)cc1)Oc1ccc(F)cc1` (stereo not drawn), the Potency was “inactive”.
For `CCN(CC)CC(O)COC(=O)C(O)(c1ccccc1)C1CCCCC1` (stereo not drawn), the Potency was “inactive”.
In the case of `COc1ccc(OP(C)(=O)Nc2ccc(Br)cc2)cc1` (stereo not drawn), the Potency was “inactive”.
With `COc1ccccc1OP(C)(=O)Nc1c(C)n(C)n(-c2ccccc2)c1=O` (stereo not drawn) the Potency was “inactive”.
In the case of `O=C(OCCCN1CCCC1)C(O)(c1ccccc1)C1CCCCC1` (stereo not drawn), the Potency was “inactive”.
For `CP(=O)(Oc1ccccc1)N1CCOC1=O` (stereo not drawn), the Potency was “inactive”.
For `CCc1ccc(OP(C)(=O)Nc2cccnc2)cc1` (stereo not drawn), the Potency was “inactive”.
For `CP(=O)(OC12CC3CC(CC(C3)C1)C2)OC12CC3CC(CC(C3)C1)C2`, the Potency was “inactive”.
In the case of `CP(=O)(Nc1ccc(Cl)cc1Cl)Oc1ccccc1` (stereo not drawn), the Potency was “inactive”.
In the case of `CP(=O)(OCCOc1ccccc1)OCCOc1ccccc1`, the Potency was “inactive”.
With `Cc1cc(C)cc(OP(C)(=O)Nc2cccc(C(F)(F)F)c2)c1` (stereo not drawn) the Potency was “inactive”.
With `COc1ccccc1OP(C)(=O)Nc1ccc(C)c(C)c1` (stereo not drawn) the Potency was “inactive”.
In the case of `COc1ccc(OP(C)(=O)Nc2ccccc2Br)cc1` (stereo not drawn), the Potency was “inactive”.
With `Cc1c(NP(C)(=O)Oc2ccc(C(C)C)cc2)c(=O)n(-c2ccccc2)n1C` (stereo not drawn) the Potency was “inactive”.
For `CP(=O)(Nc1ccccn1)Oc1ccccc1` (stereo not drawn), the Potency was “inactive”.
With `COc1ccccc1OP(C)(=O)Nc1ccc(C)cc1C` (stereo not drawn) the Potency was “inactive”.
In the case of `CCc1ccc(OP(C)(=O)O)cc1`, the Potency was “inactive”.
With `COc1ccccc1OP(C)(=O)Nc1ccc(Br)cc1` (stereo not drawn) the Potency was “inactive”.
With `COc1ccc(OP(C)(=O)Nc2ccccn2)cc1` (stereo not drawn) the Potency was “inactive”.
For `CN(C)CCOC(=O)C(O)(c1ccccc1)C1CCCC1` (stereo not drawn), the Potency was “inactive”.
With `O=C(OCCN1CCN(CCOCc2ccccc2)CC1)C(O)(c1ccccc1)c1ccccc1` the Potency was “inactive”.
In the case of `CP(=O)(Nc1ccccc1F)Oc1ccccc1` (stereo not drawn), the Potency was “inactive”.
With `CC(C)c1ccc(OP(C)(=O)Nc2ccc(SC(F)(F)F)cc2)cc1` (stereo not drawn) the Potency was “inactive”.
For `CCN(CC)CCCOC(=O)C(O)(c1ccccc1)C1CCCCC1` (stereo not drawn), the Potency was “inactive”.
In the case of `CP(=O)(Nc1ccccc1)Oc1ccc(F)cc1` (stereo not drawn), the Potency was “inactive”.
In the case of `CCCCCOc1ccc(NP(C)(=O)Oc2ccc(Cl)cc2Cl)cc1` (stereo not drawn), the Potency was “inactive”.
In the case of `CCOC(=O)c1ccc(NP(C)(=O)Oc2ccc(F)cc2)cc1` (stereo not drawn), the Potency was “inactive”.
With `COc1ccc(OP(C)(=O)Nc2ccc(SC(F)(F)F)cc2)cc1` (stereo not drawn) the Potency was “inactive”.
For `O=[N+]([O-])c1ccc(OP2(=O)COCCO2)cc1` (stereo not drawn), the Potency was “inactive”.
With `COc1ccc(OP(C)(=O)Nc2cccc(Br)c2)cc1` (stereo not drawn) the Potency was “inactive”.
In the case of `CN(C)CCOC(=O)C(O)(c1ccccc1)C1CCCCC1` (stereo not drawn), the Potency was “inactive”.
For `COc1ccc(NP(C)(=O)Oc2ccccc2OC)cc1` (stereo not drawn), the Potency was “inactive”.
In the case of `CP(=O)(Nc1ccc2c(c1)OCCO2)Oc1ccccc1` (stereo not drawn), the Potency was “inactive”.
With `Cc1ccccc1NP(C)(=O)Nc1ccccc1C` the Potency was “inactive”.
With `CCOP(C)(=S)SCC(=O)NC(C)(CC)C(=O)O` (stereo not drawn) the Potency was “inactive”.
In the case of `Cc1nc2ccc3ccccc3c2s1.O=[N+]([O-])c1cc([N+](=O)[O-])c(O)c([N+](=O)[O-])c1`, the Potency was “inactive”.
In the case of `O=[N+]([O-])c1cc([N+](=O)[O-])c(-n2nnc3ccccc32)c([N+](=O)[O-])c1`, the Potency was “inactive”.
With `COc1ccccc1OP(C)(=O)Nc1c(C)cccc1C` (stereo not drawn) the Potency was “inactive”.
In the case of `CN1CCCCC1COC(=O)C1(O)c2ccccc2CCc2ccccc21` (stereo not drawn), the Potency was “inactive”.
With `CCCOc1ccc(NP(C)(=O)Oc2ccc(Cl)cc2)cc1` (stereo not drawn) the Potency was “inactive”.
With `CP(=O)(Nc1ccc(SC(F)(F)F)cc1)Oc1ccccc1` (stereo not drawn) the Potency was “inactive”.
In the case of `CC1=C2N=C(C=C3N=C(C(C)=C4[N-][C@@](C)([C@@H]5N=C1[C@](C)(CCC(=O)NC[C@@H](C)OP(=O)([O-])O[C@H]1[C@@H](O)[C@@H](n6cnc7cc(C)c(C)cc76)O[C@@H]1CO)[C@H]5CC(N)=O)[C@@](C)(CC(N)=O)[C@@H]4CCC(N)=O)[C@@](C)(CC(N)=O)[C@@H]3CCC(N)=O)C(C)(C)[C@@H]2CCC(N)=O.[C-]#N.[Co+3]`, the Potency was active: 8.2 µM.
For `CC1=NCCc2c1[nH]c1ccccc21.O=[N+]([O-])c1cc([N+](=O)[O-])c(O)c([N+](=O)[O-])c1`, the Potency was “inactive”.
With `Cc1ccc(C)c(NP(C)(=O)Oc2ccccc2)c1` (stereo not drawn) the Potency was “inactive”.
With `Cc1cc(C)cc(OP(C)(=O)Nc2ccccn2)c1` (stereo not drawn) the Potency was “inactive”.
For `CP(=O)(Nc1cccc(Br)c1)Oc1ccccc1` (stereo not drawn), the Potency was “inactive”.
With `COc1ccccc1OP(C)(=O)Nc1cccc(Br)c1` (stereo not drawn) the Potency was “inactive”.
For `Cc1cc(C)cc(OP(C)(=O)Nc2ccc(C)cc2C)c1` (stereo not drawn), the Potency was “inactive”.
In the case of `CCN(CC)CCCOC(=O)C(O)(c1ccccc1)c1ccccc1`, the Potency was “inactive”.
With `COc1ccccc1OP(C)(=O)Nc1ccc(C)cc1` (stereo not drawn) the Potency was “inactive”.
For `Cc1ccc(NP(C)(=O)Oc2ccccc2)c(C)c1` (stereo not drawn), the Potency was “inactive”.
For `CCOC(=O)c1ccc(NP(C)(=O)Oc2ccccc2)cc1` (stereo not drawn), the Potency was “inactive”.
With `Cc1cc(C)cc(OP(C)(N)=O)c1` (stereo not drawn) the Potency was “inactive”.
With `COc1ccccc1OP(C)(=O)Nc1cc(Cl)ccc1C` (stereo not drawn) the Potency was “inactive”.
With `COc1ccc(OP(C)(=O)Nc2cccc(F)c2)cc1` (stereo not drawn) the Potency was “inactive”.
For `CC(C)(C)c1ccc(OP(C)(=O)Nc2ccc(SC(F)(F)F)cc2)cc1` (stereo not drawn), the Potency was “inactive”.
With `Cc1cccc(C)c1OP(C)(N)=O` (stereo not drawn) the Potency was “inactive”.
For `CP(=S)(Nn1cnnc1)Oc1ccccc1` (stereo not drawn), the Potency was “inactive”.
In the case of `CP(=O)(Nc1ccccc1Br)Oc1ccccc1` (stereo not drawn), the Potency was “inactive”.
With `COc1ccccc1OP(C)(=O)Nc1ccccc1` (stereo not drawn) the Potency was “inactive”.
With `CCOC(=O)c1ccc(NP(C)(=O)Oc2ccc(OC)cc2)cc1` (stereo not drawn) the Potency was “inactive”.
With `CP(=O)(Nc1ccc(SC(F)(F)F)cc1)Oc1ccc(Cl)cc1` (stereo not drawn) the Potency was “inactive”.
For `CP(=O)(Oc1ccccc1)OC(c1ccccc1)C(F)(F)F` (stereo not drawn), the Potency was “inactive”.
With `CP(=O)(NC(=O)Nc1ccccc1)Oc1ccccc1` (stereo not drawn) the Potency was “inactive”.
For `CCc1ccc(OP(C)(=O)N2CCN(c3ccc([N+](=O)[O-])cc3)CC2)cc1` (stereo not drawn), the Potency was “inactive”.
With `Cc1cc(C)cc(OP(C)(=O)Nc2ccc(SC(F)(F)F)cc2)c1` (stereo not drawn) the Potency was “inactive”.
